In the test the target is Dimeric Mouse Ang-2FD conjugated to human IgG1 (mouse (Mus musculus)). Briefly: SPR, human IgG1 antibody captured. (In general: SPR reads the build-up and loss of mass on a sensor chip optically.)

Chains of the proteins cited; added tags and fusions are not shown. Chains listed by the source or under a name are the forms on record and can include a tag or linker.
Dimeric Mouse Ang-2FD conjugated to human IgG1 (mouse (Mus musculus)), one chain, as listed by the source limits assumed: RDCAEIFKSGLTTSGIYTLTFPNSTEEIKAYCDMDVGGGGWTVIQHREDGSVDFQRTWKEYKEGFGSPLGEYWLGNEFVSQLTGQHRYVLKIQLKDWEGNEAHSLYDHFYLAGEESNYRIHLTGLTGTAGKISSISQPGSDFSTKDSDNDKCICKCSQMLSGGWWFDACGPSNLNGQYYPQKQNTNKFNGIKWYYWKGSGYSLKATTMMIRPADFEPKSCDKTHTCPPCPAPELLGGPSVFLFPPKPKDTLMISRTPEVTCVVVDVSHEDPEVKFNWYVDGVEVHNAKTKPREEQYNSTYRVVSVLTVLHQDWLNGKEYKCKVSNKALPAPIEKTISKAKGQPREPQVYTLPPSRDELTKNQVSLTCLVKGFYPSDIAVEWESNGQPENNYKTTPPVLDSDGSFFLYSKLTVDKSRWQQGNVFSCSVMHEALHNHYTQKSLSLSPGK

Results on one molecule are retold here after patent US20130129722A1.

B1: H1H744N (antibody, V domains shown)
VH: QVQLVQSGVEVKKPGASVKVSCKTSGYTFSNNGFSWVRQAPGQGLEWLGWISGYNGNTNYAQKFQGRVTMTTDTSTSTAYMELRTLRSDDTAVYYCARDQDYSNFHWLDPWGQGTLVTVAS
VL: DIQMTQSPSSVSASVGDRVIITCRASQGLSSWLAWYQQKPGTAPKLLIHSASSLQTGVPSRFSGSGSGTEFALTINSLQPEDFGTYYCQQANSFPLTFGGGTRVEIK
By Kd is commonly meant the free concentration of one partner at which half of the binding sites on the other are occupied at equilibrium, for simple one-to-one binding. High values mean weaker binding, low ones tighter binding. Regarding B1, the Kd amounted to 0.158 nM.
